Measured values reported in patent US9453051B2, “Cyclosporin derivatives” (priority 2011, dated 2016).

Test system: NFAT
Assay: Cellular NFAT-reporter-gene assay (GloResponse NFAT-RE-luc2P HEK293)
Format: cell-based
Conditions: read-out: NFAT-reporter-gene assay IC50; HEK293 reporter cells stimulated with 5 nM PMA and 2 μM ionomycin, 16 h

Compound CC[C@@H]1NC(=O)[C@H]([C@H](O)[C@H](C)Cc2nc3cc(C(=O)OC)ccc3[nH]2)N(C)C(=O)[C@H](C(C)C)N(C)C(=O)[C@H](CC(C)C)N(C)C(=O)[C@H](CC(C)C)N(C)C(=O)[C@@H](C)NC(=O)[C@H](C)NC(=O)[C@H](CC(C)C)N(C)C(=O)[C@H](C(C)C)NC(=O)[C@H](CC(C)C)N(C)C(=O)CN(C)C1=O has an IC50 of over 10 µM.
